High-throughput results from PubChem.
TDP1 cell CPT = DT40-hTDP1 cell growth loss with CPT; AID 686979; Potency, µM (doses to about 46.2 µM), without a hit: at the highest dose activity change, negative = growth inhibition, hits mostly inhibitors; 12% of 420,000 active; chicken DT40 Tdp1-/-;hTDP1 cells + 20 nM CPT, ATP luminescence, 48 h; note: potency is the fitted concentration of half-maximal effect; % is set by controls: 0 for no effect and ±100 for the full control effect; nearly all actives have a fitted effect of over 55% in size
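Cell growth measured by CellTiter-Glo luminescence after a minimum 48 h, 37 C compound exposure with 20 nM CPT in Tdp1-knockout DT40 cells stably expressing hTDP1, seeded 400/well; qHTS titration format.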
TDP1 block = blocks human tyrosyl-DNA phosphodiesterase 1; recombinant TDP1, AlphaScreen DNA substrate cleavage; Q9NUW8; Potency, µM (top dose mostly 130 µM), without a hit: at the top dose activity change, negative = inhibition, hits mostly inhibitors; AID 485290; 0.28% of 350,000 active; note: potency is the fitted concentration of half-maximal effect; % is set by controls: 0 for no effect and ±100 for the full control effect; nearly all actives have a fitted effect of over 40% in size
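Recombinant E. coli-expressed Tdp1 (1 nM) preincubated with compound 15 min at RT, then 5'-biotin/3'-phosphotyrosine-FITC DNA substrate (15 nM) added for 5 min. AlphaScreen beads (10 ug/ml) added, 10 min RT; tyrosine-FITC cleavage read as signal loss.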
DT40 TDP1 no CPT = qHTS for Inhibitors of human tyrosyl-DNA phosphodiesterase 1 (TDP1): qHTS in cells in absence of CPT | DT40 Tdp1-/- hTDP1 cells, no CPT, ATP luminescence, 48 h | Potency, µM (doses to about 46.2 µM), inactives show top-dose activity change, negative = growth inhibition, actives largely listed as inhibitors | 15% of 420,000 active; note: potency is the fitted concentration of half-maximal effect; % is set by controls: 0 for no effect and ±100 for the full control effect; nearly all actives have a fitted effect of over 55% in size
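Luminescent ATP content (CellTiter-Glo) served as the growth readout. Knockout chicken DT40 cells expressing human TDP1 were exposed to compounds without camptothecin for a minimum 48 hr at 37 °C.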
uPA surface inh = cell surface uPA generation inhibition; cell surface uPA generation assay, qHTS; Potency, µM (titrated, usually from 38.3 µM), for the others: at the highest dose activity change, negative = inhibition, usual class: inhibitors; 0.31% of 330,000 active; AID 540303; active = well fitted inhibition curve with a large enough effect; inconclusive = small, poorly fitted or top-dose-only effect; inactive = no such curve, though single readings can be large or run the other way; tested in mouse RAW 264.7 cells; note: potency is the fitted concentration of half-maximal effect; % is set by controls: 0 for no effect and ±100 for the full control effect; nearly all actives have a fitted effect of over 55% in size
miR-21 reporter = raises the signal of a miR-21 reporter; Potency, µM (doses to about 38.3 µM), inactives show top-dose reporter change, positive = more light; HeLa miR-21 FLuc reporter, luciferase, 48 h; AID 2288; 340,000 tested, under 10 active; active = well fitted rising curve with a large enough effect; inconclusive = small, poorly fitted or top-dose-only effect; inactive = no such curve, though single readings can be large or run the other way;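 further: % of control where 0% means no effect; miR-21 action dims this reporter so a rising signal means less miR-21 action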
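Luminescence from a firefly luciferase reporter carrying a miR-21 binding site downstream, stably expressed under a CMV promoter in HeLa cells that make miR-21 endogenously, reports miRNA modulation after 48 h compound exposure up to approximately 40uM final.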
Numbers without * were called inactive; ? = inconclusive; . = no result given; [ ] = another dose, or the depositor's remark. The list is not random: actives were taken first. Their share in the collection is about 16%. Unless noted, calls come from the whole dose curve; as a rule, active = well fitted curve in the direction sought with a large enough effect; inconclusive = small, poorly fitted or top-dose-only effect, or another doubt; inactive = no such curve, though single readings can be large; an effect the other way counts as inactive or inconclusive.

Abbreviations: A = TDP1 cell CPT; B = TDP1 block; C = DT40 TDP1 no CPT; D = uPA surface inh; E = miR-21 reporter
1. CCCCN(CC)C(=O)c1oc2ccc(S(=O)(=O)N3CCCC3)cc2c1C
  A = ? | B = 1.7% | C = -19.6% | D = 1.8% | E = 0.7%

2. CN1C(=O)c2cccc3c(S(=O)(=O)NCCc4ccccc4)ccc1c23
  A = ? | B = 3.7% | C = 20.6µM* | D = -1.2% | E = 1.1%

3. COCCNS(=O)(=O)c1ccc2c3c(cccc13)C(=O)N2C
  A = -10.4% | B = -5.1% | C = -21.1% | D = -4.3% | E = -2.3%

4. COc1ccccc1-c1cncnc1NCc1ccccc1
  A = -2.7% | B = . | C = -12.4% | D = . | E = .

5. COc1ccccc1-c1c(C)nn2c(N)c(-c3ccc(Cl)cc3)cnc12
  A = -8.2% | B = . | C = -18.2% | D = 0.3% | E = -12.4%

6. CCCCc1c(-c2ccccc2OC)ncn1C1CCCC1
  A = 18.4µM* | B = . | C = 10.3µM* | D = . | E = .

7. CCCCc1c(-c2ccccc2OC)ncn1Cc1cccc(-c2ccccc2)c1
  A = 11.6µM* | B = . | C = 6.51µM* | D = . | E = .

8. COc1cccc(Cn2cnc(-c3ccccc3OC)c2C2CC2)c1
  A = ? | B = . | C = 20.6µM* | D = . | E = .

9. CCCCc1c(-c2ccccc2OC)ncn1Cc1ccc(Cl)cc1
  A = 13µM* | B = . | C = 11.6µM* | D = . | E = .

10. CC1CCCC(C)N1C(=O)COC(=O)C1CCN(S(=O)(=O)c2ccc3c(c2)OCCO3)CC1 (stereo unspecified)
  A = 2.6% | B = -7.2%[0.505 µM] | C = -14.9% | D = -17.7% | E = .

11. O=C1NC[C@@H](CCCCN2C[C@H](Cc3ccccc3)N(CCC3CCCCC3)C(=O)C2=O)N(CCc2ccc(O)cc2)C1=O
  A = -5.0% | B = . | C = 3.4% | D = . | E = .

12. CCCCc1c(-c2ccccc2OC)ncn1Cc1ccc(-c2ccccc2)cc1
  A = 14.6µM* | B = . | C = 20.6µM* | D = . | E = .

13. COc1ccccc1-c1nn(Cc2ccccc2)cc1/C=C/C(=O)O
  A = -0.3% | B = 5.6% | C = -1.2% | D = -10.0% | E = -4.1%

14. CCCCc1c(-c2ccccc2OC)ncn1CCc1cccc(Cl)c1
  A = 16.4µM* | B = . | C = 20.6µM* | D = . | E = .

15. O=C1NC(Cc2c[nH]c3ccccc23)C(=O)N1Cc1cccc2ccccc12 (stereo unspecified)
  A = -26.8% | B = -8.1% | C = ? | D = 4.3% | E = -7.4%

16. CN(C)CCCN(C(=O)c1ccc(S(=O)(=O)N2CCCCCC2)cc1)c1nc2c(F)cc(F)cc2s1
  A = ? | B = 0.7% | C = 16.4µM* | D = -0.7% | E = .

17. Cc1cc(C)c2nc(N(CCCN(C)C)C(=O)c3ccc(S(=O)(=O)N4CC(C)OC(C)C4)cc3)sc2c1 (stereo unspecified)
  A = 16.4µM* | B = 0.5% | C = 20.6µM* | D = -1.5% | E = .

18. CC(C)(C)NCC(=O)N/N=C/c1ccc(OCc2ccccc2)cc1
  A = 7.5% | B = -1.2% | C = ? | D = -5.8% | E = -39.5%

19. O=C(CCNC(=O)c1ccccc1Cl)Nc1ccc2c(c1)OCCO2
  A = -20.5% | B = . | C = -28.4% | D = . | E = .

20. c1ccc(-c2nc3nc4ccccc4nc3n2Cc2ccco2)cc1
  A = ? | B = -5.3% | C = 22.4µM* | D = -2.0% | E = -25.9%

21. Fc1ccc(-c2nc3nc4ccccc4nc3n2Cc2ccco2)cc1
  A = ? | B = 2.0% | C = ? | D = -1.3% | E = -39.0%

22. c1ccc(Cn2c(-c3cccs3)nc3nc4ccccc4nc32)cc1
  A = . | B = -4.8% | C = . | D = . | E = -13.5%

23. CCCCn1c(-c2cccs2)nc2nc3ccccc3nc21
  A = ? | B = -7.7% | C = 23.1µM* | D = 1.0% | E = -6.7%

24. CCCCOCCCn1c(-c2ccco2)nc2nc3ccccc3nc21
  A = ? | B = 7.3% | C = 20.6µM* | D = 4.4% | E = 9.4%

25. CC(C)Cn1c(-c2cccs2)nc2nc3ccccc3nc21
  A = 16.4µM* | B = -7.8% | C = 14.6µM* | D = 3.2% | E = 16.5%

26. Cc1ccc(-n2c(-c3cccs3)nc3nc4ccccc4nc32)cc1
  A = . | B = -1.4% | C = . | D = . | E = 0.6%

27. COc1ccc(NCC(=O)N/N=C2\CCc3ccccc32)cc1
  A = ? | B = 6.0% | C = -21.9% | D = -0.7% | E = -36.3%

28. COc1nc2c(C)cccc2cc1-c1noc(-c2ccco2)n1
  A = -43.1% | B = 5.2% | C = 0.146µM* | D = 3.1% | E = -6.9%

29. Cn1c(SCC(=O)NC2CC2)nnc1-c1cccs1
  A = -11.8% | B = 4.9% | C = -6.0% | D = -5.4% | E = -54.0%

30. Cn1ccnc1SCC(=O)NC1CCCCC1
  A = 1.0% | B = 6.2% | C = 9.0% | D = 0.8% | E = -9.0%

31. Cn1c(SCC(=O)N(C2CCCCC2)C2CCCCC2)nnc1-c1cccs1
  A = ? | B = 5.5% | C = 16.4µM* | D = ? | E = -2.5%

32. Cn1ccnc1SCC(=O)N(C1CCCCC1)C1CCCCC1
  A = ? | B = 9.5% | C = 14.6µM* | D = 0.7% | E = 9.1%

33. CCn1nnnc1SCC(=O)N(C1CCCCC1)C1CCCCC1
  A = 10µM* | B = 0.0% | C = 11.2µM* | D = 5.8% | E = 1.2%

34. CCN(C(=O)CSc1nnnn1C)C1CCCCC1
  A = ? | B = 0.0% | C = -27.9% | D = 10.1% | E = .

35. CC(Nc1ccc(-c2nc(-c3cccnc3)no2)cc1[N+](=O)[O-])c1ccccc1 (stereo unspecified)
  A = -5.3% | B = 0.0% | C = 9.8% | D = . | E = 0.0%

36. Cc1noc(-c2ccc(NC(C)c3ccccc3)c([N+](=O)[O-])c2)n1 (stereo unspecified)
  A = 16.4µM* | B = 5.7% | C = 23.1µM* | D = . | E = 2.8%

37. CC(Nc1ccc(-c2nc(-c3ccccn3)no2)cc1[N+](=O)[O-])c1ccccc1 (stereo unspecified)
  A = -26.5% | B = -5.7% | C = -21.4% | D = . | E = 1.9%

38. CCc1noc(-c2ccc(NC(C)c3ccccc3)c([N+](=O)[O-])c2)n1 (stereo unspecified)
  A = 18.4µM* | B = 11.4% | C = ? | D = . | E = -2.8%

39. CC(O)CNc1nc2ccccc2n1-c1ncnc2sc3c(c12)CCC3 (stereo unspecified)
  A = 16.4µM* | B = 5.1% | C = 29.1µM* | D = 2.8% | E = 8.5%

40. CCSC1(SCC)N=C(N)C2(C#N)C(c3ccc(F)cc3)C12C#N (stereo unspecified)
  A = ? | B = -2.0% | C = 20.6µM* | D = -13.7% | E = ?

41. O=C(NCc1cccnc1)c1c[nH]c2cc3c(cc2c1=O)OCCO3
  A = 10.3µM* | B = 0.0% | C = 5.8µM* | D = -9.8% | E = -5.6%

42. O=S(=O)(/N=C(/Nc1ccc(Cl)cc1Cl)c1ccccc1)c1cccs1
  A = -12.0% | B = 4.8% | C = 2.2% | D = 1.5% | E = -36.5%

43. CN1/C(=C\C(=O)c2ccco2)c2ccccc2CC1(C)C
  A = ? | B = -4.2% | C = ? | D = -7.0% | E = -5.0%

44. COCCCNC(=O)C(C)N1c2cccc3cccc(c23)S1(=O)=O (stereo unspecified)
  A = 20.6µM* | B = . | C = 20.6µM* | D = 2.7% | E = -5.7%

45. COc1ccccc1NC(=O)Nc1ccnn1C1CCN(C(=O)C2CCOC2)CC1 (stereo unspecified)
  A = -2.3% | B = . | C = -5.1% | D = . | E = .

46. CCN(c1ccccc1)S(=O)(=O)c1cccc(C(=O)N(C)CC(=O)Nc2ccc(F)c(F)c2F)c1
  A = 14.6µM* | B = . | C = 18.4µM* | D = 1.1% | E = .

47. C=CCN(c1ccccc1)S(=O)(=O)c1cccc(C(=O)N(CC)CC(=O)Nc2c(F)cccc2F)c1
  A = 23.1µM* | B = 3.8% | C = 14.6µM* | D = -11.7% | E = 13.4%

48. COc1cc2cc[n+](Cc3ccc([N+](=O)[O-])cc3)cc2cc1OC
  A = 18.4µM* | B = . | C = ? | D = -11.3% | E = 9.8%

49. O=[N+]([O-])c1ccc(C[n+]2cccc(O)c2)cc1
  A = 4.6% | B = -0.1% | C = 2.2% | D = 3.0% | E = .

50. CN1C(=O)CC(N2CCN(Cc3ccc(Cl)cc3)CC2)C1=O (stereo unspecified)
  A = -6.8% | B = -4.7% | C = -2.5% | D = 0.7% | E = -4.9%

Another view of 3 compounds above:
No. | canonical_smiles | TDP1 cell CPT | TDP1 block | DT40 TDP1 no CPT | uPA surface inh | miR-21 reporter
34 | CCN(C(=O)CSc1nnnn1C)C1CCCCC1 | ? | 0.0% | -27.9% | 10.1% | .
35 | CC(Nc1ccc(-c2nc(-c3cccnc3)no2)cc1[N+](=O)[O-])c1ccccc1 (stereo unspecified) | -5.3% | 0.0% | 9.8% | . | 0.0%
36 | Cc1noc(-c2ccc(NC(C)c3ccccc3)c([N+](=O)[O-])c2)n1 (stereo unspecified) | 16.4µM* | 5.7% | 23.1µM* | . | 2.8%
